# Results published in patent publication US20220296547A1, “METHODS AND COMPOSITIONS FOR TREATMENT OF DISEASES” (Tranexamic Technologies, LLC, priority 2020, published 2022).
# What was measured:
# [1] = test system: HCI-012/LVM2/LR10 drug-resistant, HER2+, metastatic breast cancer; test: Breast tumor growth in patient-derived model; format: in vivo, mice; conditions: treatment day 20; 375 mg/kg orally once daily; P value of 0.035
# [2] = test system: B16 murine melanoma tumors; conditions: topically once daily for five consecutive days, 20%
structure (smiles),measurement,setting,value
NC[C@H]1CC[C@H](C(=O)O)CC1 [tranexamic acid],"tumor volume, vehicle group relative to treatment group",[1],eight-fold
same,death of melanoma cells (hematoxylin and eosin tumor sections),[2],killed melanoma cells adjacent to the skin
